## scFv variants of Ab-95 (light chain) against a SARS-CoV-2 spike peptide

Source: Engelhart et al. 2022 (doi:10.1038/s41597-022-01779-4), MIT Lincoln Laboratory and A-Alpha Bio; data file from the FLAb repository.

Binding partner: SARS-CoV-2 spike HR2 peptide, sequence PDVDLGDISGINAS.

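The starting antibody came from a phage panning campaign against this peptide. In library AAYL52, one, two or three CDR residues were substituted; doubles and triples were drawn at random. The assay is AlphaSeq: two haploid yeast populations carry antibody and antigen on their surface. After mating in shaken culture at 30 °C for 16 h, diploids were selected and their barcode pairs sequenced. A regression on co-assayed BCL2-family reference pairs converts the normalised counts of each replicate to an apparent Kd. Mating was done three times.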

Ab-95 is the parent antibody, in scFv form: VH, then a 15-residue (Gly4Ser)3 linker, then VL. The heavy chain is unchanged in all variants.
VH: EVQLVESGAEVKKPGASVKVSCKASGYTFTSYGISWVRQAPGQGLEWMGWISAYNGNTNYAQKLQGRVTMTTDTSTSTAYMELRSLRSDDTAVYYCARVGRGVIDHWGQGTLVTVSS
VL: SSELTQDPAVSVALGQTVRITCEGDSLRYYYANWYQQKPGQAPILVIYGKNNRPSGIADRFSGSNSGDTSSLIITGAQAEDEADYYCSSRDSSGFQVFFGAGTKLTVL

Each variant's VL is given in full.
Affinities are written as log10 Kd with Kd in nM; a lower number is a better binder.
The mean shown is taken over the replicates in which the pair was detected.
Where no diploid with the target was found in that replicate, the entry reads "nd": below detection, most likely a poor binder, though not proof of it.
Three control strains display no target. For library AAYL52, 28% of the pairings with them gave a signal, with a median of 3.91 and one signal in twenty below 2.90, so weak values seen in few replicates may be background. Also given: how often the same scFv was detected with the empty control strains, with their mean in brackets.

VL,"replicates, log10 nM","mean, log10 nM",signal with controls
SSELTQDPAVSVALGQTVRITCEGKSLRAYYANWYQQKPGQAPILVIYGKNNRPSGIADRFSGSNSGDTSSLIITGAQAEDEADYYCSSGDSSGFQVFFGAGTKLTVL,3.48 nd nd,3.48,1/9 (3.59)
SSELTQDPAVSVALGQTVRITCEGDSLVYYYANWYQQKPGQAPILVIYTKNNRPSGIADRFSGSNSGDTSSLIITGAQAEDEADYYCSRRDSSGFQVFFGAGTKLTVL,5.26 nd nd,5.26,3/9 (3.65)
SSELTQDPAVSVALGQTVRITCEHDSLRYYYANWYQQKPGQAPILVIYGLNNRPSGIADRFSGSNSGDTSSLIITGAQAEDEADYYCSSRDSSGFQVFFGAGTKLTVL,3.24 2.93 3.13,3.10,5/9 (4.07)
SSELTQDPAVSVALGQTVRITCEGDSLRAYYANWYQQKPGQAPILVIYGYHNRPSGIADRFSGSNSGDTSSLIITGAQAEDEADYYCSSRDSSGFQVFFGAGTKLTVL,4.05 3.31 3.39,3.58,5/9 (4.07)
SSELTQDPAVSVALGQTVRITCLGDSLRYYYANWYQQKPGQAPILVIYGKNNYRSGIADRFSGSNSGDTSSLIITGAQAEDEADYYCSSRDSSGFQVFFGAGTKLTVL,3.92 5.06 nd,4.49,3/9 (4.44)
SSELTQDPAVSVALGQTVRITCEGDSLRYYYATWYQQKPGQAPILVIYKRNNRPSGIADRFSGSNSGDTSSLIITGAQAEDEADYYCSSRDSSGFQVFFGAGTKLTVL,4.64 nd nd,4.64,3/9 (3.57)
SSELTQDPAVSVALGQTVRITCEGDYLRYYYHNWYQQKPGQAPILVIYGKNNRPSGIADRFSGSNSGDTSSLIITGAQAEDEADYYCSGRDSSGFQVFFGAGTKLTVL,2.19 2.46 2.95,2.53,0/9
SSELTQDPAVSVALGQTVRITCEGDSLNYYYANWYQQKPGQAPILVIYGKNNRPSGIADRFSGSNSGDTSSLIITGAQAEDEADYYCSSCDSSGFQEFFGAGTKLTVL,2.84 2.17 2.82,2.61,0/9
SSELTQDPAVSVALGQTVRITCEGDSLRYYYANWYQQKPGQAPILVIYGKDNRPSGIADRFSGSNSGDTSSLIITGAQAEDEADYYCSPRDSSGFDVFFGAGTKLTVL,nd nd nd,nd,2/9 (4.06)
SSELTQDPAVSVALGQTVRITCEGDSLRYMYANWYQQKPGQAPILVIYGKNNRPPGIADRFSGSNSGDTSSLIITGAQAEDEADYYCSSRDSSAFQVFFGAGTKLTVL,2.78 2.55 2.30,2.54,5/9 (3.53)
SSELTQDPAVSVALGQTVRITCEGDYLRYYYANWYQQKPGQAPILVIYGKNNRPSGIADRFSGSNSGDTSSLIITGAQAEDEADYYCTSRDSSEFQVFFGAGTKLTVL,3.56 nd 3.35,3.46,3/9 (4.33)
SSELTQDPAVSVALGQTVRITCEGDSLRYYYYNWYQQKPGQAPILVIYGKNNRPSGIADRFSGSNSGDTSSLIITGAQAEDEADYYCASRDSSGFQVFFGAGTKLTVL,3.05 2.80 3.10,2.98,0/9
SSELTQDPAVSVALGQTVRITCEGDNLRTYYANWYQQKPGQAPILVIYGKNNRPSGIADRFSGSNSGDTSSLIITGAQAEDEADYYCSSRDSSGFQVLFGAGTKLTVL,4.49 3.44 nd,3.97,2/9 (4.55)
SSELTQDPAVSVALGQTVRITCEIDSLRYYYANWYQQKPGQAPILVIYGKNNKPSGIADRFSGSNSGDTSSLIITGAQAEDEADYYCSSRDSSGFQVFFGAGTKLTVL,nd nd 2.70,2.70,1/9 (3.27)
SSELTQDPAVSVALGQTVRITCEGDWLRYYYAGWYQQKPGQAPILVIYGKNNRPSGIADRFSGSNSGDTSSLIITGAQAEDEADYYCSVRDSSGFQVFFGAGTKLTVL,nd nd nd,nd,1/9 (4.22)
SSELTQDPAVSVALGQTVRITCEGDSLRYYYANWYQQKPGQAPILVIYKKNNRPSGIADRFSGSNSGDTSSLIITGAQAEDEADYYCSSVCSSGFQVFFGAGTKLTVL,nd nd nd,nd,2/9 (3.61)
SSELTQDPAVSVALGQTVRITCEGDSLRYYYANWYQQKPGQAPILVIYGLNNRPFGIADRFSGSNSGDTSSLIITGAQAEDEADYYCSSRDSSGFVVFFGAGTKLTVL,4.27 nd nd,4.27,0/9
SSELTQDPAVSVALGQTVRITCEADCLRYYYANWYQQKPGQAPILVIYGKNNRPSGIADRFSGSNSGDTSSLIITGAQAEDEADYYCSSRDSSGFMVFFGAGTKLTVL,3.62 5.56 nd,4.59,3/9 (4.02)
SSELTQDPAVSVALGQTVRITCEGDSLRYPYANWYQQKPGQAPILVIYGKNNRPSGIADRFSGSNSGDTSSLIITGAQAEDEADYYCSSRSSSGFQRFFGAGTKLTVL,nd nd nd,nd,0/9